# Test results taken from BindingDB's records for patent US20240034729 (Wuhan Ll Science and Technology Development, 2024).
# Target: T1, P2X purinoceptor 3 (Homo sapiens, UniProt P56373)
# T1 sequence (P56373 whole entry): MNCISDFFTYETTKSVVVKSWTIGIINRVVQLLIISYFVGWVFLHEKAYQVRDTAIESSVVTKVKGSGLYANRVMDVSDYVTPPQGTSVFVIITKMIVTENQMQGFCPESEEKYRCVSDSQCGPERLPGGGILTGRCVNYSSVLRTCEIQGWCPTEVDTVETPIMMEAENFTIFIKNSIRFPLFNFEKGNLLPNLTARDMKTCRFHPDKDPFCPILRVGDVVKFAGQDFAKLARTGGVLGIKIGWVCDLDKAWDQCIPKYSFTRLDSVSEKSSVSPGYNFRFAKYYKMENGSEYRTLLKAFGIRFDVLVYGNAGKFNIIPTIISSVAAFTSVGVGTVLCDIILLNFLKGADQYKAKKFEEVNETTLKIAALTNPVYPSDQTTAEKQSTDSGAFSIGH
# Test: Evaluation of In Vitro Biological Activity
# Procedure: Each well was added with 10 μL of test compound (which was dissolved in DMSO at a concentration of 10 mM and serially diluted with buffer) or vehicle, and then was left to equilibrate for 30 min at room temperature.
smiles,measurement,value
"COC(=O)N1CCO[C@@H](Cc2c(-c3c(F)cc(-n4cccn4)cc3F)nc3cc(C)ccn23)C1 [US20240034729, Compound 50]",IC50,< 10 nM
